Assay results as given in US8034936B2, “Spirocyclic cyclohexane compounds useful to treat substance dependency” (Gruenenthal GmbH, priority 2005, dated 2011).
Like-named read-outs stand apart in the source and are kept apart here.

The chains behind the UniProt entries cited, without tags or fusion partners. Where a name states a change or a piece, a line headed by the entry shows the natural chain unless it says otherwise.
UniProt P35372, whole entry, looked up: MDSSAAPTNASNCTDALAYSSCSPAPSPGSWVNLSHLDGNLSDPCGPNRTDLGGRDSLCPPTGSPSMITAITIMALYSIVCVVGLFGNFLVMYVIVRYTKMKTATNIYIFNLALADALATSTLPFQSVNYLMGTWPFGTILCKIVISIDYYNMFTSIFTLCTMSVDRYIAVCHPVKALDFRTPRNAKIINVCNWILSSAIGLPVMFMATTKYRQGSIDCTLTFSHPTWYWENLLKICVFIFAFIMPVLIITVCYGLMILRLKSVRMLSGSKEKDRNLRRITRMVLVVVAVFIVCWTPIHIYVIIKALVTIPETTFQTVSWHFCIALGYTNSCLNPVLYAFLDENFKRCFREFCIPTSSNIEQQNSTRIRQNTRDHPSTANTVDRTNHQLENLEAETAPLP
UniProt P41146: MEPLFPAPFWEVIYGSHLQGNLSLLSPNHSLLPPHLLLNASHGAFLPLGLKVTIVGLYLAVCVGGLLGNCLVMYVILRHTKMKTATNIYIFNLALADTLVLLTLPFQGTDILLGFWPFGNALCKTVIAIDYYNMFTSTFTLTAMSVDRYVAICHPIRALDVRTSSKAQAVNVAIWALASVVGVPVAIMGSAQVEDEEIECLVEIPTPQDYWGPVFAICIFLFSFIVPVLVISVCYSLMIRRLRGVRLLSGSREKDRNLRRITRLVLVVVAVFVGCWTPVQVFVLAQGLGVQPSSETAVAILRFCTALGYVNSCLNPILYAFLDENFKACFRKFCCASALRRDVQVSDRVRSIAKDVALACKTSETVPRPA

Tests used:
human μ-opiate receptor = human μ-opiate receptor (Homo sapiens, UniProt P35372); experiment: μ-opiate receptor binding, [3H]-naloxone displacement, CHO-K1 membrane preparation
ORL1 receptor = ORL1 receptor (Homo sapiens, UniProt P41146); experiment: ORL1 receptor binding assay with 3H-nociceptin/orphanin FQ, membranes of recombinant CHO-ORL1 cells
[1] = read-out: ORL1 human Ki, No. 1-49

Compound	Ki (human μ-opiate receptor; read-out: μ, Ki, No. 50-145) [nM]	ORL1/μ ratio (ORL1 receptor; No. 50-145)	Ki (ORL1 receptor; read-out: ORL1, Ki, No. 50-145) [nM]	Ki (ORL1 receptor; [1]) [nM]	also measured
CN(C)C1(c2ccccc2)CCC2(CC1)c1[nH]c3ccccc3c1CCN2C(=O)c1ccco1 (stereo not shown)	34	0.87	39		
CN(C)C1(c2cccc(F)c2)CCC2(CC1)c1[nH]c3ccccc3c1CCN2C(=O)c1c(F)cccc1F (stereo not shown)	7.8	0.88	8.9		
COc1cc(C(=O)N2CCc3c([nH]c4ccccc34)C23CCC(c2cccc(F)c2)(N(C)C)CC3)cc(OC)c1OC (stereo not shown)	23	1.21	19		
CN(C)C1(c2cccc(F)c2)CCC2(CC1)c1[nH]c3ccccc3c1CCN2C(=O)c1c(F)cccc1C(F)(F)F (stereo not shown)	3.6	0.67	5.4		
CN(C)C1(c2ccccc2)CCC2(CC1)OCCc1c2[nH]c2c(Cl)c(Cl)ccc12 (stereo not shown)				4.5	Ki (human μ-opiate receptor; read-out: μ Ki, No. 1-49): 1.4 nM; ORL1/μ Ratio calculated as Ki(μ)/Ki(ORL1) (ORL1 receptor; No. 1-49): 0.31
COC(=O)CCC(=O)N1CCc2c([nH]c3ccccc23)C12CCC(Cc1ccccc1)(N(C)C)CC2 (stereo not shown)	69	1.05	66		
CN(C)C1(c2ccccc2)CCC2(CC1)NCCc1c2oc2ccccc12 (stereo not shown)				70	
CN(C)C1(c2cccc(F)c2)CCC2(CC1)c1[nH]c3ccccc3c1CCN2C(=O)c1cc(Cl)cc(Cl)c1 (stereo not shown)	16	0.53	30		
CC(=O)N1CCc2c([nH]c3cc(F)ccc23)C12CCC(c1ccccc1)(N(C)C)CC2 (stereo not shown)				1.1	Ki (human μ-opiate receptor; read-out: μ Ki, No. 1-49): 1.6 nM; ORL1/μ Ratio calculated as Ki(μ)/Ki(ORL1) (ORL1 receptor; No. 1-49): 1.41
COC(=O)c1ccc2[nH]c3c(c2c1)CCOC31CCC(c2ccccc2)(N(C)C)CC1 (stereo not shown)					μ-opiate-receptor [1 μM], % inhibition (human μ-opiate receptor): 74%; ORL-1 [1 μM], % inhibition (ORL1 receptor): 11%
CN(C)C1(Cc2ccccc2)CCC2(CC1)c1[nH]c3ccccc3c1CCN2C(=O)c1ccc(C(F)(F)F)cc1 (stereo not shown)	21	1.91	11		
CN(C)C1(c2cccc(F)c2)CCC2(CC1)c1[nH]c3ccccc3c1CCN2C(=O)Cc1cccs1 (stereo not shown)	36	2.12	17		
CN(C)C1(Cc2ccccc2)CCC2(CC1)c1[nH]c3ccccc3c1CCN2C(=O)c1cc(F)cc(C(F)(F)F)c1 (stereo not shown)	14	1.82	7.7		
CN(C)C1(c2ccccc2)CCC2(CC1)c1[nH]c3ccccc3c1CCN2C(=O)c1cccc(F)c1F (stereo not shown)	9.6	0.33	29		
CNC1(c2ccccc2)CCC2(CC1)OCCc1c2[nH]c2ccc(OC)cc12 (stereo not shown)					Ki (human μ-opiate receptor; read-out: μ-opiate-receptor Ki, printed in the % inhibition column): 2.4 nM; ORL1/μ ratio calculated as Ki(μ)/Ki(ORL1) (only for measured Ki values) (ORL1 receptor; comparison compounds): 0.03; Ki (ORL1 receptor; read-out: ORL-1 Ki, printed in the % inhibition column): 69 nM
CC1Cc2c([nH]c3ccc([N+](=O)[O-])cc23)C2(CCC(c3ccccc3)(N(C)C)CC2)O1 (stereo not shown)				30	Ki (human μ-opiate receptor; read-out: μ Ki, No. 1-49): 40 nM; ORL1/μ Ratio calculated as Ki(μ)/Ki(ORL1) (ORL1 receptor; No. 1-49): 1.29
CN(C)C1(c2ccccc2)CCC2(CC1)c1[nH]c3ccccc3c1CCN2C(=O)c1ccc(Cl)c(Cl)c1 (stereo not shown)	23	1.64	14		
CN(C)C1(Cc2ccccc2)CCC2(CC1)c1[nH]c3ccccc3c1CCN2C(=O)c1cc(F)c(F)c(F)c1F (stereo not shown)	15	0.50	30		
CN(C)C1(c2ccccc2)CCC2(CC1)OCCc1c2[nH]c2cc(Cl)c(Cl)cc12 (stereo not shown)					μ-opiate-receptor [1 μM], % inhibition (human μ-opiate receptor): 100%; ORL-1 [1 μM], % inhibition (ORL1 receptor): 43%

Compound	Ki (human μ-opiate receptor; read-out: μ, Ki, No. 50-145) [nM]	ORL1/μ ratio (ORL1 receptor; No. 50-145)	Ki (ORL1 receptor; read-out: ORL1, Ki, No. 50-145) [nM]	Ki (ORL1 receptor; [1]) [nM]	also measured
CC1Cc2c([nH]c3ccc(Br)cc23)C2(CCC(c3ccccc3)(N(C)C)CC2)O1 (stereo not shown)				20	Ki (human μ-opiate receptor; read-out: μ Ki, No. 1-49): 10 nM; ORL1/μ Ratio calculated as Ki(μ)/Ki(ORL1) (ORL1 receptor; No. 1-49): 0.45
CN(C)C1(c2cccc(F)c2)CCC2(CC1)c1[nH]c3ccccc3c1CCN2C(=O)c1cc(F)cc(F)c1 (stereo not shown)	3.7	1.06	3.5		
COc1ccccc1C(=O)N1CCc2c([nH]c3ccccc23)C12CCC(c1cccc(F)c1)(N(C)C)CC2 (stereo not shown)	2.7	2.78	0.97		
CN(C)C1(c2ccccc2)CCC2(CC1)c1[nH]c3ccccc3c1CCN2C(=O)c1cccc([N+](=O)[O-])c1 (stereo not shown)	35	0.51	69		
CN(C)C1(c2ccccc2)CCC2(CC1)c1[nH]c3ccccc3c1CCN2C(=O)C1CCCC1 (stereo not shown)	29	2.90	10		
CN(C)C1(c2ccccc2)CCC2(CC1)c1[nH]c3ccccc3c1CCN2C(=O)C1CCC1 (stereo not shown)	34	0.45	75		
CN(C)C1(c2ccccc2)CCC2(CC1)NC(CO)Cc1c2[nH]c2ccccc12 (stereo not shown)				1	Ki (human μ-opiate receptor; read-out: μ Ki, No. 1-49): 2.7 nM; ORL1/μ Ratio calculated as Ki(μ)/Ki(ORL1) (ORL1 receptor; No. 1-49): 2.70
CN(C)C1(Cc2ccccc2)CCC2(CC1)c1[nH]c3ccccc3c1CCN2C(=O)c1cccc([N+](=O)[O-])c1 (stereo not shown)	8.8	0.52	17		
CN(C)C1(c2cccc(F)c2)CCC2(CC1)c1[nH]c3ccccc3c1CCN2C(=O)c1ccco1 (stereo not shown)	69	3.14	22		
CN(C)C1(c2cccc(F)c2)CCC2(CC1)c1[nH]c3ccccc3c1CCN2C(=O)c1cc(F)c(F)c(F)c1F (stereo not shown)	1.8	0.90	2		
CN(C)C1(Cc2ccccc2)CCC2(CC1)c1[nH]c3ccccc3c1CCN2C(=O)/C=C/c1ccccc1 (stereo not shown)	37	1.54	24		
CC1Cc2c([nH]c3ccc(F)cc23)C2(CCC(c3ccccc3)(N(C)C)CC2)O1 (stereo not shown)				80	Ki (human μ-opiate receptor; read-out: μ Ki, No. 1-49): 60 nM; ORL1/μ Ratio calculated as Ki(μ)/Ki(ORL1) (ORL1 receptor; No. 1-49): 0.73
CN(C)C1(c2ccccc2)CCC2(CC1)c1[nH]c3ccccc3c1CCN2C(=O)c1ccc(F)c(F)c1 (stereo not shown)	1.9	0.76	2.5		
CN(C)C1(c2ccccc2)CCC2(CC1)NCCc1c2[nH]c2cc(F)ccc12 (stereo not shown)				7	Ki (human μ-opiate receptor; read-out: μ Ki, No. 1-49): 20 nM; ORL1/μ Ratio calculated as Ki(μ)/Ki(ORL1) (ORL1 receptor; No. 1-49): 2.46
COC(=O)C1Cc2c([nH]c3ccccc23)C2(CCC(c3ccccc3)(N(C)C)CC2)N1 (stereo not shown)				0.9	Ki (human μ-opiate receptor; read-out: μ Ki, No. 1-49): 2.3 nM; ORL1/μ Ratio calculated as Ki(μ)/Ki(ORL1) (ORL1 receptor; No. 1-49): 2.67
CN(C)C1(c2cccc(F)c2)CCC2(CC1)c1[nH]c3ccccc3c1CCN2C(=O)C1CCCC1 (stereo not shown)	32	4.78	6.7		
CN(C)C1(c2ccccc2)CCC2(CC1)OCCc1c2[nH]c2ccc(-c3cccnc3)cc12 (stereo not shown)					μ-opiate-receptor [1 μM], % inhibition (human μ-opiate receptor): 89%; ORL-1 [1 μM], % inhibition (ORL1 receptor): 5%
CN(C)C1(c2ccccc2)CCC2(CC1)c1[nH]c3ccccc3c1CCN2C(=O)CC(C)(C)C (stereo not shown)	17	3.54	4.8		
CN(C)C1(c2cccc(F)c2)CCC2(CC1)c1[nH]c3ccccc3c1CCN2C(=O)/C=C/c1ccccc1 (stereo not shown)	30	21.43	1.4		

Compound	Ki (human μ-opiate receptor; read-out: μ, Ki, No. 50-145) [nM]	ORL1/μ ratio (ORL1 receptor; No. 50-145)	Ki (ORL1 receptor; read-out: ORL1, Ki, No. 50-145) [nM]	Ki (ORL1 receptor; [1]) [nM]	also measured
Cc1ccc2[nH]c3c(c2c1)CC(C)OC31CCC(c2ccccc2)(N(C)C)CC1 (stereo not shown)				4.4	Ki (human μ-opiate receptor; read-out: μ Ki, No. 1-49): 14 nM; ORL1/μ Ratio calculated as Ki(μ)/Ki(ORL1) (ORL1 receptor; No. 1-49): 3.18
CC(=O)N1CCc2c(oc3ccccc23)C12CCC(c1ccccc1)(N(C)C)CC2 (stereo not shown)					μ-opiate-receptor [1 μM], % inhibition (human μ-opiate receptor): 78%; ORL-1 [1 μM], % inhibition (ORL1 receptor): 33%
CN(C)C1(c2ccccn2)CCC2(CC1)NCCc1c2[nH]c2ccccc12 (stereo not shown)				1.6	Ki (human μ-opiate receptor; read-out: μ Ki, No. 1-49): 2.8 nM; ORL1/μ Ratio calculated as Ki(μ)/Ki(ORL1) (ORL1 receptor; No. 1-49): 1.75
CN(C)C1(c2ccccc2)CCC2(CC1)OCCc1c2[nH]c2ccc(-c3nccs3)cc12 (stereo not shown)					μ-opiate-receptor [1 μM], % inhibition (human μ-opiate receptor): 92%; ORL-1 [1 μM], % inhibition (ORL1 receptor): 27%
CN(C)C1(Cc2ccccc2)CCC2(CC1)c1[nH]c3ccccc3c1CCN2C(=O)c1c(F)cccc1C(F)(F)F (stereo not shown)	34	0.62	55		
CN(C)C1(c2ccccc2)CCC2(CC1)OCCc1c2[nH]c2ccc(Br)cc12 (stereo not shown)				50	Ki (human μ-opiate receptor; read-out: μ Ki, No. 1-49): 20 nM; ORL1/μ Ratio calculated as Ki(μ)/Ki(ORL1) (ORL1 receptor; No. 1-49): 0.37
CN(C)C1(c2ccccc2)CCC2(CC1)c1[nH]c3ccccc3c1CCN2C(=O)c1cc(Cl)cc(Cl)c1 (stereo not shown)	35	0.64	55		
CN(C)C1(c2cccc(F)c2)CCC2(CC1)OCCc1c2[nH]c2ccccc12 (stereo not shown)				1.2	Ki (human μ-opiate receptor; read-out: μ Ki, No. 1-49): 2.2 nM; ORL1/μ Ratio calculated as Ki(μ)/Ki(ORL1) (ORL1 receptor; No. 1-49): 1.79
CN(C)C1(c2cccc(F)c2)CCC2(CC1)c1[nH]c3ccccc3c1CCN2C(=O)c1ccccc1Br (stereo not shown)	19	0.41	46		
CN(C)C1(c2cccc(O)c2)CCC2(CC1)OCCc1c2[nH]c2ccccc12 (stereo not shown)				14	Ki (human μ-opiate receptor; read-out: μ Ki, No. 1-49): 9 nM; ORL1/μ Ratio calculated as Ki(μ)/Ki(ORL1) (ORL1 receptor; No. 1-49): 0.66
CN(C)C1(Cc2ccccc2)CCC2(CC1)c1[nH]c3ccccc3c1CCN2C(=O)c1c(F)cccc1F (stereo not shown)	83	1.54	54		
CN(C)C1(c2ccc(F)cc2)CCC2(CC1)NCCc1c2[nH]c2ccccc12 (stereo not shown)				2.6	Ki (human μ-opiate receptor; read-out: μ Ki, No. 1-49): 2.9 nM; ORL1/μ Ratio calculated as Ki(μ)/Ki(ORL1) (ORL1 receptor; No. 1-49): 1.12
CN(C)C1(c2ccccc2)CCC2(CC1)OCCc1c2[nH]c2ccc(-c3cnn(Cc4ccccc4)c3)cc12 (stereo not shown)				4.4	Ki (human μ-opiate receptor; read-out: μ Ki, No. 1-49): 12 nM; ORL1/μ Ratio calculated as Ki(μ)/Ki(ORL1) (ORL1 receptor; No. 1-49): 2.73
CC1Cc2c(n(C)c3ccccc23)C2(CCC(c3ccccc3)(N(C)C)CC2)O1 (stereo not shown)					μ-opiate-receptor [1 μM], % inhibition (human μ-opiate receptor): 75%; ORL-1 [1 μM], % inhibition (ORL1 receptor): 15%
CN(C)C1(Cc2ccccc2)CCC2(CC1)c1[nH]c3ccccc3c1CCN2C(=O)c1ccc(C(C)(C)C)cc1 (stereo not shown)	59	0.54	110		
CN(C)C1(c2ccccc2)CCC2(CC1)c1[nH]c3ccccc3c1CCN2C(=O)c1ccc(Cl)cc1 (stereo not shown)	10	0.91	11		
CN(C)C1(Cc2ccccc2)CCC2(CC1)c1[nH]c3ccccc3c1CCN2C(=O)c1ccccc1[N+](=O)[O-] (stereo not shown)				3.8	Ki (human μ-opiate receptor; read-out: μ Ki, No. 1-49): 1.2 nM; ORL1/μ Ratio calculated as Ki(μ)/Ki(ORL1) (ORL1 receptor; No. 1-49): 0.32
CC(C)CC(=O)N1CCc2c([nH]c3ccccc23)C12CCC(c1ccccc1)(N(C)C)CC2 (stereo not shown)	11	2.68	4.1		
CNC1(c2cccs2)CCC2(CC1)OCCc1c2[nH]c2ccc(F)cc12 (stereo not shown)				4.2	Ki (human μ-opiate receptor; read-out: μ Ki, No. 1-49): 2.8 nM; ORL1/μ Ratio calculated as Ki(μ)/Ki(ORL1) (ORL1 receptor; No. 1-49): 0.7
